# Test results as given in article PMC12702776, “New insights into the classification of the RAC1 P29S hotspot mutation in melanoma as an oncogene” (Cancer Gene Therapy, 2025).
# B1: GST-PAK1 RBD (RAC1 binding domain of p21-activated kinase 1) (domain or fragment)
# chain: SILPGDKTNKKKEKERPEISLPSDFEHTIHVGFDAVTGEFTGMPEQWARLLQTSNITKSEQKKNPQAVLDVLEFYNSKKTSNSQK
# notes: not shown: GST, N-terminal, kept
# Experiments:
# Conditions in all cases: both partners purified
# RAC1^P29S, purified [1] = molecular target: T1, RAC1^P29S, purified (human, UniProt P63000 1-192, P29S); experiment: stopped-flow fluorimetry; 0.1 µM mGppNHp-bound RAC1 rapidly mixed with increasing concentrations of GST-PAK1 RBD (association); RAC1•mGppNHp•GST-PAK1 RBD complex mixed with excess GppNHp-bound RAC1 (dissociation); Kd = koff/kon
# RAC1^F28L, purified = RAC1^F28L, purified (human, UniProt P63000 1-192, F28L); experiment: as above
# RAC1^P29S, purified [2] = molecular target: T1, RAC1^P29S, purified; experiment: fluorescence polarisation; 1 µM mGppNHp-bound RAC1 titrated with GST-PAK1 RBD; 30 mM Tris-HCl pH 7.5, 50 mM NaCl, 5 mM MgCl2, 3 mM DTT, 25 °C; quadratic ligand binding equation
binder,measurement,setting,value
B1,fold decrease of binding affinity against RAC1^WT,"RAC1^P29S, purified [1]",5 fold
same,fold slower kon against RAC1^WT,"RAC1^P29S, purified [1]",10 fold
same,fold slower koff against RAC1^P29S,"RAC1^F28L, purified",34 fold
same,fold slower koff against RAC1^WT,"RAC1^F28L, purified",66 fold
same,fold slower kon against RAC1^WT,"RAC1^F28L, purified",40 fold
same,fold decrease of binding affinity against RAC1^WT,"RAC1^P29S, purified [2]",7.5 fold
